Values quoted from earlier work, collected in patent US7422793B2, “Non-toxic corrosion-protection rinses and seals based on rare earth elements” (University of Dayton, priority 2002, dated 2008).

conditions: pH 7; cited from earlier work

| Substance | Solubility in Water |
| --- | --- |
| Lithium chlorite | 5 × 10^0 mole/L |
| Ammonium hexafluorotitanate | 0.1 mol/L |
| Ammonium fluorozirconate | 0.1 mol/L |
| Lithium sulfate | 2.7 × 10^0 mole/L |
| Rubidium molybdate | 6.4 × 10^0 mole/L |
| Lithium vanadate | 1 × 10^0 mole/L |
| Ammonium stannate | 5 × 10^0 mole/L |
| Calcium hexaniobate | 0.047 mol/L |
| Sodium chlorite | 4.3 × 10^0 mole/L |
| Ammonium fluoroaluminate | 0.053 mol/L |
| Strontium chlorite | 0.5 mol/L |
| Ammonium perborate | 0.18 mol/L |
| Rubidium chlorate | 0.3 mol/L |
| Calcium nitrite | 3.9 × 10^0 mole/L |
| Ammonium niobate | 0.1 mol/L |
| Cerium (III) dimethylphosphate | 0.76 mol/L |
| Rubidium hexafluorosilicate | 0.0069 mol/L |

| Substance | Solubility in Water |
| --- | --- |
| Rubidium fluoroantimonate | 1.6 × 10^0 mole/L |
| Cesium hexafluoroantimonate | 5 × 10^0 mole/L |
| Germanium dioxide hydrate | 0.043 mol/L |
| Sodium vanadate | 1.7 × 10^0 mole/L |
| Rubidium perchlorate | 0.22 mol/L |
| Ammonium tantalate | 0.01 mol/L |
| Ammonium fluorostannate | 0.1 mol/L |
| Zinc fluorogallate | 0.1 mol/L |
| Germanium fluoride hydrate | 0.1 mol/L |
| Ammonium hexafluorohafnate | 1 × 10^0 mole/L |
| Lithium perborate | 0.1 mol/L |
| Lithium hexafluoroaluminate | 0.0066 mol/L |
| Barium chlorite | 0.1 mol/L |
| Calcium chlorite | 1 × 10^0 mole/L |
| Ammonium molybdate | 5 × 10^0 mole/L |
| Rubidium vanadate | 0.5 mol/L |
| Iron (II) hexafluorosilicate | 4.19 × 10^0 mole/L |
